By Kd is commonly meant the constant that tells how readily two partners part at equilibrium.

Here are results for one substance from US20250115669A1, “FGFR1/KLB Targeting Agonistic Antigen-Binding Proteins and Conjugates Thereof with GLP-1R Agonistic Peptides” (SANOFI, priority 2020, published 2025).

The target in this assay is T1, human beta-Klotho (Homo sapiens, UniProt Q86Z14).
T1 sequence (Q86Z14 1-1044): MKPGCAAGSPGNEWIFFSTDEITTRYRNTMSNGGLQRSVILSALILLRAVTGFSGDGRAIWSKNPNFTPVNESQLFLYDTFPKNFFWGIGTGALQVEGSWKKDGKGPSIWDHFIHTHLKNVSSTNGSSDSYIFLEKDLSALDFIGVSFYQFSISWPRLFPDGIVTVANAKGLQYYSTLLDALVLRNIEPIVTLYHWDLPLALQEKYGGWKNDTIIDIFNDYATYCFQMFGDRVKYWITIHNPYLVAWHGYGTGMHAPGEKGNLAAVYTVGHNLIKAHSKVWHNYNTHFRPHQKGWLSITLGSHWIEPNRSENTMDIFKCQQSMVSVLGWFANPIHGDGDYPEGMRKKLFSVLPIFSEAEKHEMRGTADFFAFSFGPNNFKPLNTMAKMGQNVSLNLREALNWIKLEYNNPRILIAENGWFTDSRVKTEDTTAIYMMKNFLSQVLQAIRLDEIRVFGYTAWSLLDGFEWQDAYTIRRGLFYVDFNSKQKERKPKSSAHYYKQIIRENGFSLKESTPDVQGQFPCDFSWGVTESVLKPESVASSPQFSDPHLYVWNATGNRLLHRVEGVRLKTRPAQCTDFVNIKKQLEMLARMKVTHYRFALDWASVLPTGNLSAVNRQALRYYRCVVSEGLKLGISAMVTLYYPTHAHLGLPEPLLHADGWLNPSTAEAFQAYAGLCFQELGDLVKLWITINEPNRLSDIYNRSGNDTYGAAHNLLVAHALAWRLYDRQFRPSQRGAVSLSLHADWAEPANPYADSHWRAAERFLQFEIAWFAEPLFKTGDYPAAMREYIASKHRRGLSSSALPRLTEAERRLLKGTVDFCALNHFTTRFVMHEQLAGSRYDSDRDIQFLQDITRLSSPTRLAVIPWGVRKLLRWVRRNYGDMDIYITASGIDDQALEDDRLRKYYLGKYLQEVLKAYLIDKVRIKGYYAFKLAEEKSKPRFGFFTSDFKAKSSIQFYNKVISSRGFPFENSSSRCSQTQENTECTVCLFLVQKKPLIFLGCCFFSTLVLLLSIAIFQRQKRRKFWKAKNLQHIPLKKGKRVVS
The experiment in a line: SPR binding affinity and kinetics to human beta-Klotho (Biacore 8K, anti-human Fc capture). The following applies: 1:1 binding model, read-out: KD human KLB. How it is done: Binding affinity and kinetics were measured on a Biacore 8K instrument (GE Healthcare). For the affinity capture of the diluted mAb sample, an anti-human Fc antibody (human antibody capture kit, GE Healthcare) was immobilized on all eight channels of a series S CM5 sensor chip (GE Healthcare) to approximately 10.000 RU. The anti-beta-Klotho antibodies were diluted into HBS-EP+ assay buffer (GE Healthcare) to 0.04 μg/mL. The antibodies were injected in the sample compartment, whereas the reference compartment was used without captured antibody. […] For the antigen inject the flow rate was adjusted to 60 μL/min with an association time of 180 sec and a dissociation time of 1800 sec. The maximum binding signal of beta-Klotho was in the range of 30 RU. […] Binding kinetics data were evaluated with a 1:1 binding model using the Biacore 8K Evaluation Software version 1.1.1.7442 (GE Healthcare).
For interaction analysis with human beta-klotho, mAbs were captured via an anti-human Fc antibody immobilized on a series S CM5 sensor chip (human antibody capture kit, GE Healthcare). […] Binding kinetics data were evaluated with a 1:1 binding model using the Biacore 8K Evaluation Software version 1.1.1.7442 (GE Healthcare). […] Binding kinetics data were evaluated with a 1:1 binding model using the Biacore 8K Evaluation Software version 1.1.1.7442 (GE Healthcare). […]
For orientation: In SPR one partner is held on a chip, and binding of the other changes the refractive index at the surface.

For “16H7: anti FGFR1c/KLB monoclonal antibody of WO 2011/071783, IgG2 backbone; HC SEQ ID NO: 1, LC SEQ ID NO: 2 [Ab 16H7]”, the Kd was determined as 0.026 nM.
